Measured values from US10189822B2, “Heterocyclic modulators of lipid synthesis” (3-V Biosciences, Inc., priority 2015, dated 2019).

System: ET (luc-ubi-neo/ET) cell line, Huh7 human hepatoma
Assay: cells
Conditions: Huh-7, 72 h

## Cc1ccc(C(=O)N2CCC(F)(c3ccc(C#N)cc3)CC2)cc1NC(=O)NC1CCOC1 (centres unmarked) [(I-Z)]
read-out: Cell IC50, Luc assay system: CytoTox-1 cell proliferation assay
  IC50: > 32 µM
read-out: Cell IC50, RNA-based assay: rRNA levels via TaqMan RT-PCR
  IC50: > 100 µM

Where two headings read alike, the source gives them in different places.
